The source of these data is US20260382588A1, “COMPOUNDS CONTAINING A HYDROXYPHENYL MOIETY AND THEIR USE” (published 2026).

By UniProt entry, the sequences of proteins in these tests, tags left out. Residues count along the entry.
UniProt O75460, 465-977 limits assumed: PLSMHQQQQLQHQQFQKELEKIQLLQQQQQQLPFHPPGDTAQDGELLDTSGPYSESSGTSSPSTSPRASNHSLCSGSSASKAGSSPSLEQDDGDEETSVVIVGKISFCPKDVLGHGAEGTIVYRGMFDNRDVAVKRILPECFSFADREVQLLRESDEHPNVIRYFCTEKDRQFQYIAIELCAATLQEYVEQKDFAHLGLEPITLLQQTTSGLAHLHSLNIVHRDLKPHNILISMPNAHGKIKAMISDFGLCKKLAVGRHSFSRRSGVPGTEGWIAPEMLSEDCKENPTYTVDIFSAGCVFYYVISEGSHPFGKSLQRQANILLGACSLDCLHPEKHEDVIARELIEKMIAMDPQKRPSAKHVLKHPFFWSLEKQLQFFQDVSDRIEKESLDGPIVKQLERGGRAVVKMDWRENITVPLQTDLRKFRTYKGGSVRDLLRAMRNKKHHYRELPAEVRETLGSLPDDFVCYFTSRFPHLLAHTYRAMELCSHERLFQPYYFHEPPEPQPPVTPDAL
UniProt O75460, 19-977 limits assumed: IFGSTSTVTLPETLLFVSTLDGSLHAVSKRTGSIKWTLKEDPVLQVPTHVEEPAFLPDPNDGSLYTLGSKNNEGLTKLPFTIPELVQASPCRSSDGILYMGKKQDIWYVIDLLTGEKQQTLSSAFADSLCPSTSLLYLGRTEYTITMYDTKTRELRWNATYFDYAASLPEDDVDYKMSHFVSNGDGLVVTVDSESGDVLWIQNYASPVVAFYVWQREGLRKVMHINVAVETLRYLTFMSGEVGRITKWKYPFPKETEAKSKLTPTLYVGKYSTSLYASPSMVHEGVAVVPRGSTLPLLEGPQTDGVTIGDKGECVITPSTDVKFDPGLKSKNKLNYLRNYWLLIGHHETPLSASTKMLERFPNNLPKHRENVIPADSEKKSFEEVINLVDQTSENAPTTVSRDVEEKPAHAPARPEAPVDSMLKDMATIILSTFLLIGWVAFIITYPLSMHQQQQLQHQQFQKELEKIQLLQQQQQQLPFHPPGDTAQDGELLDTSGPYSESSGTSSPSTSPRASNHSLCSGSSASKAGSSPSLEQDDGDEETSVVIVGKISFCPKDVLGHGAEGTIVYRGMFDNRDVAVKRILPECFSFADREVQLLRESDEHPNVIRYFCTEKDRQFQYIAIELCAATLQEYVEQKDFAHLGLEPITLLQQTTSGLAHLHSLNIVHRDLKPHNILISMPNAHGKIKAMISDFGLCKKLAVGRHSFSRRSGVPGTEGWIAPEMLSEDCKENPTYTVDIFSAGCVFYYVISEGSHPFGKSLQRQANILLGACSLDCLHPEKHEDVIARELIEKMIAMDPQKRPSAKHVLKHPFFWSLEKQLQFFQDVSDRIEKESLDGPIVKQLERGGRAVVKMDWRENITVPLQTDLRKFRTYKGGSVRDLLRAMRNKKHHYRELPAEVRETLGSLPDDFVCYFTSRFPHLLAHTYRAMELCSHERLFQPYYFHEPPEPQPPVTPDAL

For assay [1], the target named is T1, IRE1 (Homo sapiens, UniProt O75460). Put plainly: IRE1-mediated in vitro RNase assay (FRET-quenched mini Xbp1 RNA probe). Conditions: read-out: IC50 (RNase); Table 5. From the text: (§1) Materials—IRE1 wild-type recombinant protein encoding the cytoplasmic domain (amino acids 465-977) with N-terminal polyhistidine-tag and GST tag was from Sinobiological (Sino Biological Europe GmbH, Eschborn, Germany, #11905-H20B). The fluorescent probe used for the in vitro IRE1 RNase assay was from Eurogentec. Tunicamycin was purchased from Calbiochem (Merck KGaA, Darmstadt, Germany). All the inhibitors were synthesized by and purchased from Enamine (Riga, Latvia).
IRE1-mediated in vitro RNase assay—Organic molecules (Compounds 28 (Z4P), and 33 (Z4), 34 (Z4A), 35 (Z4B), 36 (Z4C), 37 (Z4D) and 38 (Z4E)) were diluted in minimal volume of DMSO and subsequently re-diluted in reaction buffer (20 mM HEPES pH 7.5; 1 mM MgOAc; 50 mM KOAc). Maximum volume of DMSO per reaction never exceeded 1%. Reaction volume was 25 μL. Recombinant IRE1 (0.6 μg/reaction) was incubated at room temperature for 10 minutes with varying concentrations (0-100 μM) of inhibitor and reaction buffer. The assay relied on the use of fluorescence resonance energy transfer (FRET)—quenched mini Xbp1 RNA substrate probe, which when cleaved by IRE1 emits fluorescence at 590 nm (cy3) wavelength (F. Prischi et al., Nature Communications, 2014, 5, 3554). Subsequently equal volume of mixture of reaction buffer, 20 mM ATP, 2 mM DTT and 1 μg of fluorescent probe were added to each sample and fluorescence was read in 96 well plates flat bottom, black polystyrene, matrix active group High Bind (Corning®) every minute for 25 minutes, at 37 °C, using a Tecan 200 plate reader.

The target of assay [2] is T1, IRE1. The experiment in a line: Luciferase assay in cells. Particulars: read-out: IC50 (Luciferase); Table 5. The procedure:
Luciferase assays—Cells were seeded in 96-well plate. Cells were treated with increasing concentration of Z4 and analogues. Medium was discarded and the plate was tapped to remove residual medium. 100 μL of lysis buffer (25 mM Tricine pH 7.8; 15 mM Potassium Phosphate pH 7.8; 15 mM MgSO4; 4 mM EGTA; 1% Triton X-100; 1 mM DTT) were added per well and incubated for 20 minutes at RT. 50 μL were transferred to a white 96-well plate and 50 μL of substrate buffer (25 mM Tricine pH 7.8; 15 mM Potassium Phosphate pH 7.8; 15 mM MgSO4; 4 mM EGTA; 1% Triton X-100; 1 mM DTT; 1 mM ATP; 0.2 mM luciferin) were added in each well and the luminescence was read.
IRE1—Mediated In Vitro RNase Assay and Luciferase Assay

In assay [3] the target is T1, IRE1. The experiment in a line: MicroScale Thermophoresis (MST) direct binding to recombinant IRE1. Conditions: for difference in KD between enantiomers: S-28 versus R-28, MST; for Kd: recombinant IRE1, MST, one-site saturation binding, data not shown.
Excerpt: as §1
MicroScale Thermophoresis13 The direct binding of compound 33 (Z4) and compound 28 (Z4P) to IRE1 protein was measured using MicroScale Thermophoresis (MST). IRE recombinant protein was labelled using RED-Tris-NTA fluorescent dye (RED-Tris-NTA 2nd Generation, NanoTemper, Munich, Germany; #MO-L018). For the labelling step, 100 μL of 20 nM protein solution is mixed with 100 μL of 10 nM RED-Tris-NTA dye in PBST buffer (PBS with 0.05% Tween-20) and incubated for 30 min at RT. The protein—dye mixture was centrifuged for 10 min at 4C and 15 000×g. For measurement of direct binding, the compounds were analyzed in a 16-point dilution series mixed in a 1:1 ratio with the labelled protein in PBST buffer. The assay was performed in standard Monolith NT.115
Capillaries (NanoTemper; #MO-K022), and all measurements were performed at 60% MST power and 60% excitation power using the Monolith NT. 115 Pico machine (NanoTemper). The dissociation constant (Kd) was calculated by taking the average of triplicate normalized fluorescence data using NANOTEMPER analysis software (MO.Affinity Analysis v2.3). The normalized values were converted to fraction-bound data, and the resulting binding curves are plotted using GRAPHPAD PRISM software (GraphPad Software).
To monitor the interaction between IRE1 and the compounds, micro-scale thermophoresis (MST) was used with recombinant IRE1 and increasing concentrations of compound 33 (Z4) and compound 28 (Z4P) (racemic mixtures) and the pure compound 28 (Z4P) enantiomers. […] To this end, the racemic compound was synthesized and the enantiomers separated by chiral chromatography. […] Additionally, compounds 28 (Z4P), 33 (Z4), 34 (Z4A), 35 (Z4B), 36 (Z4C), 37 (Z4D) and 38 (Z4E) were tested for inhibitory activity using a fluorescence resonance energy transfer (FRET)—quenched IRE1 RNA substrate probe and yielded IC50s in the low micromolar range (FIG. 1).

Turning to `Cc1ccc(C)c(NC(=O)Nc2cn(-c3ccc(O)cc3)c3ccccc23)c1`, on IRE1 [1], the IC50 – broadly, the concentration needed to halve the response being measured – was 0.068 µM.

Turning to `Cc1ccc(C)c(NC(=O)NC(C)C#Cc2ccc(O)cc2)c1` (stereo not drawn), the IC50 at IRE1 [1] was 1.92 µM.

In the case of `Cc1ccc(C)c(NC(=O)NC(C)(C)C#Cc2cccc(O)c2)c1`, the IC50 on IRE1 [1] turned out to be 0.342 µM; at IRE1 [2] it was 7.75 µM.

Regarding `Cc1ccc(C)c(NC(=O)NC(C)C#Cc2cccc(O)c2)c1` (stereo not drawn), on IRE1 [1], the IC50 turned out to be 0.16 µM.

For the compound `Cc1ccc(C)c(NC(=O)Nc2ccc(-c3cccc(O)c3)cc2)c1`, the IC50 on IRE1 [1] is 0.27 µM; at IRE1 [2], 1.04 µM.

Consider `CC(CCc1ccc(O)cc1)NC(=O)Nc1cccc(C2CC2)c1` (stereo not drawn), for which the figures for the IC50 at IRE1 [1] and at IRE1 [2] were 1.14 µM and 4.84 µM, respectively.

Consider `Cc1ccc(C)c(NC(=O)OC(C)CCc2ccc(O)cc2)c1` (stereo not drawn), for which the IC50 at IRE1 [1] was determined as 0.37 µM.

For `Cc1cc(C)cc(NC(=O)NC(C)CCc2ccc(O)cc2)c1` (stereo not drawn), the IC50 at IRE1 [1] is 0.14 µM; on IRE1 [2], 1.17 µM.

Take `CC(CCc1ccc(O)cc1)NC(=O)Nc1ccccc1` (stereo not drawn): the IC50 at IRE1 [1] stood at 0.809 µM; on IRE1 [2], 16.7 µM.

As for `Cc1ccc(C)c(CC(=O)NC(C)CCc2ccc(O)cc2)c1` (stereo not drawn), the IC50 was 0.57 µM on IRE1 [1] and 0.593 µM on IRE1 [2].

In the case of `Cc1ccc(C)c(OC(=O)NC(C)CCc2ccc(O)cc2)c1` (stereo not drawn), the IC50 worked out at 1.21 µM on IRE1 [1] and 0.868 µM on IRE1 [2].

Turning to `Cc1cccc(NC(=O)NC(C)CCc2ccc(O)cc2)c1` (stereo not drawn), the figures for the IC50 on IRE1 [1] and on IRE1 [2] were 0.451 µM and 13 µM, respectively.

Take `CC(CCc1ccc(O)cc1)NC(=O)Nc1cccc(C(C)C)c1` (stereo not drawn): the IC50 worked out at 0.58 µM on IRE1 [1] and 0.169 µM on IRE1 [2].

For `Cc1ccc(C)c(NC(=O)NC2CCCC(c3ccc(O)cc3)C2)c1` (stereo not drawn), the IC50 at IRE1 [1] stood at 8.07 µM; at IRE1 [2], 1.92 µM.

Consider `Cc1ccc(C)c(NC(=O)NCC#Cc2cccc(O)c2)c1`, for which, at IRE1 [1], the IC50 amounted to 5.16 µM.

For `Cc1ccc(C)c(NC(=O)N[C@H](C)CCc2ccc(O)cc2)c1` (single isomer, unassigned), at IRE1 [3], the “difference in KD between enantiomers” value is on record as 2 fold and the Kd (in general, a measure of binding affinity in units of concentration) was 29 µM. Moreover, the IC50 on IRE1 [1] stood at 0.2 µM.

`Cc1ccc(C)c(CNC(=O)NCCc2ccc(O)cc2)c1`: the IC50 worked out at 2.17 µM on IRE1 [1] and 6.83 µM on IRE1 [2].

As to `Cc1ccc(C)c(NC(=O)NC2CCN(c3ccc(O)cc3)CC2)c1`, the IC50 at IRE1 [1] was 0.25 µM; at IRE1 [2], 10.9 µM.

On to `CC(CCc1ccc(O)cc1)NC(=O)Nc1ccccc1C(C)(C)C` (stereo not drawn), for which the IC50 on IRE1 [1] was determined as 2.09 µM.

As to `Cc1ccc(C)c(NC(=O)Nc2ccn(-c3ccc(O)cc3)c2)c1`, the IC50 at IRE1 [2] stood at 0.93 µM.

Take `Cc1ccc(C)c(NC(=O)Nc2ccc(-c3ccc(O)cc3)cc2)c1`: on IRE1 [1], the IC50 was 2.2 µM.

With `Cc1ccc(C)c(NC(=O)N(C)C(C)CCc2ccc(O)cc2)c1` (stereo not drawn), the IC50 turned out to be 1.5 µM at IRE1 [1] and 41.4 µM at IRE1 [2].

For the compound `CC(CCc1ccc(O)cc1)NC(=O)Nc1ccc2c(c1)OCO2` (stereo not drawn), the IC50 at IRE1 [1] is 0.299 µM; at IRE1 [2], 3.26 µM.

In the case of `Cc1ccc(C)c(NC(=O)NC2CCC(c3ccc(O)cc3)CC2)c1` (stereo not drawn), on IRE1 [1], the IC50 stood at 12.8 µM.

For the compound `CCc1ccccc1NC(=O)NC(C)CCc1ccc(O)cc1` (stereo not drawn), on IRE1 [1], the IC50 is 2.55 µM.

For `CC(CCc1ccc(O)cc1)NC(=O)Nc1ccc2ncsc2c1` (stereo not drawn), the IC50 at IRE1 [1] stood at 4.02 µM.

With `Cc1ccc(C)c(NC(=O)NCC#Cc2ccc(O)cc2)c1`, on IRE1 [1], the IC50 stood at 0.799 µM.

In the case of `Cc1ccc(C)c(CNC(=O)NCc2ccc(O)cc2)c1`, the IC50 at IRE1 [1] came out at 0.825 µM.

With `Cc1ccc(NC(=O)NC(C)CCc2ccc(O)cc2)cc1` (stereo not drawn), the IC50 stood at 1.14 µM at IRE1 [1] and 8.06 µM at IRE1 [2].

As for `Cc1ccc(C)c(NC(=O)NC2CCCN(c3ccc(O)cc3)C2)c1` (stereo not drawn), the values for the IC50 at IRE1 [1] and at IRE1 [2] were 0.96 µM and 24.9 µM, respectively.

Turning to `Cc1ccc(C)c(NC(=O)N2CCN(c3cccc(O)c3)CC2)c1`, the IC50 at IRE1 [1] was 0.88 µM.

For the compound `Cc1ccc(C)c(NC(=O)Nc2cccc(-c3ccc(O)cc3)n2)c1`, the results for the IC50 on IRE1 [1] and at IRE1 [2] were 1.14 µM and 1.89 µM, respectively.

For `Cc1ccc(C)c(NC(=O)NC(C)(C)CCc2ccc(O)cc2)c1`, the IC50 on IRE1 [1] worked out at 1.22 µM.

For the compound `Cc1ccc(C)c(NC(=S)NC(C)CCc2ccc(O)cc2)c1` (stereo not drawn), the results for the IC50 at IRE1 [1] and at IRE1 [2] were 0.37 µM and 3.47 µM, respectively.

In the case of `Cc1ccc(C)c(NC(=O)NCCc2ccc(O)cc2)c1`, the IC50 at IRE1 [1] was determined as 1.55 µM.

On to `C=C(C)c1c(NC(=O)Nc2cc(C)ccc2C)c2ccccc2n1-c1ccc(O)cc1`, for which the figures for the IC50 at IRE1 [1] and at IRE1 [2] were 0.32 µM and 14.3 µM, respectively.

For `Cc1ccc(C)c(NC(=O)NCCCc2ccc(O)cc2)c1`, the IC50 at IRE1 [1] amounted to 1.84 µM.

For “1-(2,5-dimethylphenyl)-3-(6-(3- hydroxyphenyl)pyridin-3-yl)urea”, the figures for the IC50 at IRE1 [1] and at IRE1 [2] were 1.57 µM and 1.71 µM, respectively.

As to `Cc1ccc(C)c(NC(=O)N[C@@H](C)CCc2ccc(O)cc2)c1` (single isomer, unassigned), on IRE1 [3], the “difference in KD between enantiomers” value came to 2 fold and the Kd was found to be 60 µM. The IC50 at IRE1 [1] is 0.17 µM.
